The values that follow are results of earlier work, collected in patent US10583106B2, “Method of treating cancer by oral administration of acetate composition comprising magnesium acetate, calcium acetate or ethylacetate” (priority 2015, dated 2020).

SMILES strings stand for the structures.

For this data set, the system named is MeCP2 knockdown in human SK-NSH cells. The settings on record: text; Vecsler, 2010; cited from earlier work.

For `CCCC(CCC)C(=O)O` [Valproic acid], the BDNF result is on record as “increased”.
